Test results reported in ChEMBL document CHEMBL3259656, “Discovery of AZD3199, An Inhaled Ultralong Acting β2 Receptor Agonist with Rapid Onset of Action” (ACS Med Chem Lett, 2014).
The source made the active and inactive calls. The rule behind the calls is not given here.

The chains behind the UniProt entries cited, without tags or fusion partners.
UniProt Q8K4Z4, whole entry, looked up: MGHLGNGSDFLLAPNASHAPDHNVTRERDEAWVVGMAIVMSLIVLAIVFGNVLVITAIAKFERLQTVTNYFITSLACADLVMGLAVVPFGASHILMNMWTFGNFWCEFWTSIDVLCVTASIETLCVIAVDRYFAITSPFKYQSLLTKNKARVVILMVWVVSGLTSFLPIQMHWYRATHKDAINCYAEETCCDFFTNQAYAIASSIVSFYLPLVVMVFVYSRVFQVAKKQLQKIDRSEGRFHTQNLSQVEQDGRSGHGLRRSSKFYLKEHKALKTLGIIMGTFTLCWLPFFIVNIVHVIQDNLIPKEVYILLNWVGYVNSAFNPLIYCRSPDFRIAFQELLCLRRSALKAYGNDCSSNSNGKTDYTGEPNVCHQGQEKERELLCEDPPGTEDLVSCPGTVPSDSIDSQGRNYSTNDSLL

How the values were obtained:
Cavia porcellus = assay: Bronchoprotective activity in guinea pig assessed as inhibition of histamine-induced bronchoconstriction at ED80 administered intratracheally after 4 to 24 hrs relative to control; assay type: functional, organism-based
Summary of the method: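 Guinea pigs received a single intratracheal dose of agonist. Histamine-induced bronchoconstriction was measured at several time points after dosing, up to 24 h. Bronchoprotection was expressed as inhibition relative to control animals.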

[1] = target: Beta-2 adrenergic receptor (Cavia porcellus) (UniProt Q8K4Z4); conditions: Trachea

Compound	inhibition (Cavia porcellus)	pA50 [1]
COc1ccc(CC(C)NCC(O)c2ccc(O)c(NC=O)c2)cc1 (configuration not stated)	Active	
Br.CCN(CC)CCN(CCNCCc1ccc(O)c2[nH]c(=O)sc12)C(=O)CCOCCc1cccc2ccccc12		8
